Assay: HPLC quantification of caspase inhibitor in stabilization reagent before and after gamma irradiation
Assay type: physicochemical
Procedure: Caspase inhibitor (Q-VD-OPh) was dissolved and diluted in DMSO for generation of a standard curve. Concentrations of 7.5, 15, 30 and 60 μg/ml were used to generate the standard curve.
Stabilization reagents containing a mixture of caspase inhibitor, EDTA, DMPA and PEG were tested before and after gamma irradiation. Unique peaks for caspase inhibitor were identified and compared to the standard curve for total quantification of caspase inhibitor. The concentration of caspase inhibitor was determined before and after irradiation, and these concentrations were compared for relative quantification.
For the production of PAXgene Blood ccfDNA Alpha blood collection tubes (Alpha BCT), BD standard tubes for 10 ml blood draw were filled with 1.3-1.7 ml ccfDNA stabilization reagent. The exemplary stabilization reagents tested comprised a mixture of caspase inhibitor (Q-VD-OPh), K2EDTA, DMPA, PEG300 and PEG10000, according to PCT/EP2015/055699. A vacuum was applied to the tubes to allow for a 10.25 ml blood draw. Tubes were sterilized by gamma irradiation using Cobalt-60 as energetic gamma ray source in a range of 5 to 35 kGy. […]
Stabilization reagents were produced with or without the addition of radical scavengers and sterilized in bulk by gamma irradiation. The caspase inhibitor concentration was measured by HPLC before and after irradiation to determine the effect of scavenger addition on caspase inhibitor degradation during sterilization by gamma irradiation.
Stabilization reagents according to PCT/EP2015/055699 were produced with or without the addition of radical scavengers in different concentrations and with different concentrations of caspase inhibitor. PAXgene Blood ccfDNA Alpha tubes were produced by filling 1.7 ml of the respective stabilization reagent into a standard Vacutainer. Tubes were sterilized by gamma irradiation with different energy levels. The caspase inhibitor concentration was measured by HPLC before and after irradiation (see Table 7 below).

## CC(=O)N[C@@H](CS)C(=O)O [N-acetyl-L-cysteine]
Scavenger 0.5 mg/ml, casp-inh. 5 μM, 0 kGy
  HPLC Testing [C-Inh]: 19.3 µg/mL
Scavenger 0.5 mg/ml, casp-inh. 5 μM, 10 kGy
  HPLC Testing [C-Inh]: 16.2 µg/mL
Scavenger 0.5 mg/ml, casp-inh. 5 μM, 20 kGy
  HPLC Testing [C-Inh]: 13.7 µg/mL
Scavenger 0.5 mg/ml, casp-inh. 5 μM, 30 kGy
  HPLC Testing [C-Inh]: 12.3 µg/mL
Scavenger 1 mg/ml, casp-inh. 5 μM, 0 kGy
  HPLC Testing [C-Inh]: 18.5 µg/mL
Scavenger 1 mg/ml, casp-inh. 5 μM, 10 kGy
  HPLC Testing [C-Inh]: 15.8 µg/mL
Scavenger 1 mg/ml, casp-inh. 5 μM, 20 kGy
  HPLC Testing [C-Inh]: 13.4 µg/mL
Scavenger 1 mg/ml, casp-inh. 5 μM, 30 kGy
  HPLC Testing [C-Inh]: 12.5 µg/mL
Scavenger 2 mg/ml, casp-inh. 5 μM, 0 kGy
  HPLC Testing [C-Inh]: 19.7 µg/mL
Scavenger 2 mg/ml, casp-inh. 5 μM, 10 kGy
  HPLC Testing [C-Inh]: 17.2 µg/mL
Scavenger 2 mg/ml, casp-inh. 5 μM, 20 kGy
  HPLC Testing [C-Inh]: 15.3 µg/mL
Scavenger 2 mg/ml, casp-inh. 5 μM, 30 kGy
  HPLC Testing [C-Inh]: 14.3 µg/mL
Scavenger 2 mg/ml, casp-inh. 10 μM, 0 kGy
  HPLC Testing [C-Inh]: 37.8 µg/mL
Scavenger 2 mg/ml, casp-inh. 10 μM, 10 kGy
  HPLC Testing [C-Inh]: 33.3 µg/mL
Scavenger 2 mg/ml, casp-inh. 10 μM, 20 kGy
  HPLC Testing [C-Inh]: 30.7 µg/mL
Scavenger 2 mg/ml, casp-inh. 10 μM, 30 kGy
  HPLC Testing [C-Inh]: 27.6 µg/mL
Scavenger 2 mg/ml, casp-inh. 15 μM, 0 kGy
  HPLC Testing [C-Inh]: 56.0 µg/mL
Scavenger 2 mg/ml, casp-inh. 15 μM, 10 kGy
  HPLC Testing [C-Inh]: 50.0 µg/mL
Scavenger 2 mg/ml, casp-inh. 15 μM, 30 kGy
  HPLC Testing [C-Inh]: 41.2 µg/mL
Scavenger 4 mg/ml, casp-inh. 5 μM, 0 kGy
  HPLC Testing [C-Inh]: 16.6 µg/mL
Scavenger 4 mg/ml, casp-inh. 5 μM, 10 kGy
  HPLC Testing [C-Inh]: 14.8 µg/mL
Scavenger 4 mg/ml, casp-inh. 5 μM, 20 kGy
  HPLC Testing [C-Inh]: 13.4 µg/mL
Scavenger 4 mg/ml, casp-inh. 5 μM, 30 kGy
  HPLC Testing [C-Inh]: 12.8 µg/mL
